Drawing on ChEMBL document CHEMBL1132549, “Design and structure-activity relationship of a new class of potent VEGF receptor tyrosine kinase inhibitors” (J Med Chem, 1999), this text covers IC50 for one compound.

Protein sequences, listed by entry. Tags and fused reporters are not part of them.
UniProt P17948, whole entry: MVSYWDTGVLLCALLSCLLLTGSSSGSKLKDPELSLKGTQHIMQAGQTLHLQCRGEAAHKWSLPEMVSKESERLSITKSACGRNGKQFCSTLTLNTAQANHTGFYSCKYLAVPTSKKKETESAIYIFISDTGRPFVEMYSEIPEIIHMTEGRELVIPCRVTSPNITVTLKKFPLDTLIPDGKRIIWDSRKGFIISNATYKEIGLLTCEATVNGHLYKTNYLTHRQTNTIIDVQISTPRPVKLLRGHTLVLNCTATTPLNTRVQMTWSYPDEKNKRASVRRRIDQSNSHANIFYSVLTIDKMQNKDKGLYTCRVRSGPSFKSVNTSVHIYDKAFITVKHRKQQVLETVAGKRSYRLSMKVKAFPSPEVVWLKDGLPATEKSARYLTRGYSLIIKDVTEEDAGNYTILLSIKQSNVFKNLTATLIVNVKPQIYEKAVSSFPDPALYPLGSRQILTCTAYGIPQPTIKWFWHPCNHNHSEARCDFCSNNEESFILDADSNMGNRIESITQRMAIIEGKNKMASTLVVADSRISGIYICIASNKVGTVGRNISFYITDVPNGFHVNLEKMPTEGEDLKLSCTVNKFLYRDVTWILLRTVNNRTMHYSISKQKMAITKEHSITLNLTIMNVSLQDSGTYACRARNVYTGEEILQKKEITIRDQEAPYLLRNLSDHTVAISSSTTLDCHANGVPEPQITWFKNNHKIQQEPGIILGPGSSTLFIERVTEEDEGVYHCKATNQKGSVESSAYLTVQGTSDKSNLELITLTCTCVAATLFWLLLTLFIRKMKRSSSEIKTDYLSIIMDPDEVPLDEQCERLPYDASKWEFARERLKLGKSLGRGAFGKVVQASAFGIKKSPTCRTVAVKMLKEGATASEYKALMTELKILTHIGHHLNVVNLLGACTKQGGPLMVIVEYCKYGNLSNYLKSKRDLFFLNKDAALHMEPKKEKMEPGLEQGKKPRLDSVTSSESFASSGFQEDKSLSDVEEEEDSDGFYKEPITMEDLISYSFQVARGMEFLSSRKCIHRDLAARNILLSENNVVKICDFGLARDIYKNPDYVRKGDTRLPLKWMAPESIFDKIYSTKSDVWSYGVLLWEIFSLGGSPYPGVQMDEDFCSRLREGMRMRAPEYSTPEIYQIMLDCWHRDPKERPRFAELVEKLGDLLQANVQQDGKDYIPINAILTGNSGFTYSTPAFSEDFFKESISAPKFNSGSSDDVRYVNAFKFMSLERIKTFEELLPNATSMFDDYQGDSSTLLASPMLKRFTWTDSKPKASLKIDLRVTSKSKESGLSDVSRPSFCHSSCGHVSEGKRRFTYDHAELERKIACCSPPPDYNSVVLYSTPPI

The target in the experiment is Vascular endothelial growth factor receptor 1 (Homo sapiens, UniProt P17948).

By IC50 is commonly meant the concentration at which inhibition is half-maximal. Read a low IC50 as greater potency in that assay. `COc1cc2ncnc(Nc3ccc(Cl)cc3F)c2cc1OC`: the IC50 came out at 2000 nM.
